NR1D1 modulator = modulators of human Rev-erb alpha DNA binding. P20393. activity, % at 10 µM. hit rate 0.79% among 370,000. Rev-erbα–FITC-DNA binding, fluorescence polarization, 90 min;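 active means activity above about 14%, limit read from the data; passing the limit was not always enough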;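 further: 0% = DMSO wells with 35 nM protein and 100% = DMSO wells with 750 nM protein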
ERp5 inh = blocks human ERp5 reductase activity on insulin. Q15084. AID 651711. inhibition, % at 9.99 µM. hit rate 0.05% among 350,000. ERp5 insulin aggregation, absorbance 650 nm, 90 min;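 active means mean replicate inhibition above about 25%, with every replicate also reaching it, limit read from the data, passing the limit was not always enough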
UUG fidelity = alters start codon recognition fidelity in yeast; S. cerevisiae UUG-firefly luciferase reporter, luminescence/redox ratio; activity score, % at 18.7 µM; actives 0.13% (n = 350,000); AID 602363;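 active = replicate mean at a twofold rise or more, about +100% in these data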;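 also: firefly luciferase made from a UUG start codon reports start codon fidelity; reporter light over untreated wells divided by growth signal over untreated wells; some hits fall short of that in this replicate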
GSIS activator = GLuc luminescence reporter in INS-1E cells, primary screen for activators of glucose-dependent secretion of insulin; INS-1E GLuc reporter insulin secretion, 2-3 h; AID 743287; hit rate 0.61% among 370,000; activation, % at 16.6 µM;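 active means lowest replicate activation of at least 40%, so every replicate reaches that level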;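 further: 0% = median of neutral control wells and 100% = median of IBMX positive control wells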
PDI inh = inhibitors of human protein disulfide isomerase; P07237; PDI insulin aggregation turbidity, A650, 90 min; inhibition, % at 10 µM; hit rate 0.052% among 350,000; AID 588391;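 active means mean inhibition across replicates of 30% or more, whatever share of single replicates reach that level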
SMARCA2 act = SMARCA2 function activation, primary screen | MG213 cells, MMTV-luciferase reporter, dexamethasone, overnight | activation, % at 9.1 µM | hit rate 1% among 370,000 | AID 652017; in the data active means activation above about 7.8%;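 further: 0% = vehicle wells and 100% = reference activator wells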
Rev-erbA confirm = confirmation of modulators of human Rev-erb alpha DNA binding; shares compounds with NR1D1 modulator; Rev-erb alpha FITC-DNA binding, fluorescence polarization, 90 min; activation, % at 25 µM; hit rate 61% among 3,000; AID 1259319;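 active means activation at or above a set limit, or at least 3 SD above the negative control mean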;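 further: 0% = 35 nM protein with DMSO and 100% = 750 nM protein high control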
RORg counter = RORgamma DNA-binding activity, dose-response counter-screen | shares compounds with NR1D1 modulator | purified RORgamma protein-FITC-DNA binding, fluorescence polarization | IC50, µM | hit rate 8% among 910 | AID 1259320;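 active means Compounds whose fitted half-maximal concentration for disrupting protein-DNA binding is below 10 micromolar; the record names Rev-erb in its text, so the target is in doubt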
An asterisk follows results filed as active; i = inactive; x = not tested or not shown. Rows were chosen to be rich in hits. Some 2.1% of all compounds tested hit in one or more screens of this group.

SMILES | NR1D1 modulator | ERp5 inh | UUG fidelity | GSIS activator | PDI inh | SMARCA2 act | Rev-erbA confirm | others
CCC(CC)C(=O)c1c[nH]c(C(=O)NCc2cccs2)c1 | 1 | 1 | -10 | 36 | -1 | 0 | x
CC(C)(C)c1ccc(C(=O)c2c[nH]c(C(=O)NCc3cccs3)c2)cc1 | 96* | x | -9 | x | 2 | 0 | 94* | RORg counter=i
O=C(C[C@@H]1CC[C@@H](NS(=O)(=O)c2ccc(F)cc2)[C@H](CO)O1)N1CCC(Cc2ccccc2)CC1 | x | -4 | 23 | -22 | x | x | x
O=C1CCCc2nc(N3CCN(c4ccccc4)CC3)ncc21 | 24* | x | -15 | 12 | 4 | 0 | 18*
COc1ccccc1-c1cn(CC[C@@H]2CC[C@H](NC(=O)NC(C)C)[C@H](CO)O2)nn1 | x | -3 | -5 | 18 | x | x | x
CCC(CC)C1=NN2C(=N)/C(=C\c3cc(C)n(-c4cccc(C)c4)c3C)C(=O)N=C2S1 | 32* | x | -25 | -7 | 1 | 3 | -7
CC1=NN2C(=N)/C(=C\c3cc(C)n(-c4ccccc4)c3C)C(=O)N=C2S1 | -5 | 2 | x | 3 | 8 | 1 | x
Cc1cc(/C=C2\C(=N)N3C(SCc4ccccc4)=NSC3=NC2=O)c(C)n1Cc1ccccc1 | 73* | x | -8 | x | 8 | -2 | 41*
COCCNC(=O)C[C@H]1C[C@H]2c3cc(NS(C)(=O)=O)ccc3O[C@H]2[C@@H](CO)O1 | x | 2 | 5 | -4 | x | x | x
Cc1cccc(S(=O)(=O)N2C[C@H]3[C@@H](c4ccccc42)[C@H](CO)N3C(=O)C2CC2)c1 | x | -3 | -9 | 17 | x | x | x
COc1ccc(CC(=O)Nc2sc3c(c2C(N)=O)CCCC3)cc1OC | -4 | 2 | -11 | 8 | 4 | -2 | x
COc1cccc(CC(=O)Nc2sc3c(c2C(N)=O)CCCC3)c1 | 29* | 8 | -13 | -4 | 11 | 0 | 2
CCOC(=O)c1c(NC(=O)C2CCCO2)sc(C)c1C (stereo not drawn) | -2 | 6 | -13 | 20 | 5 | -2 | x
CCOC(=O)c1c(NC(=O)C2CCCO2)sc(C(=O)OC(C)(C)C)c1C (stereo not drawn) | 46* | x | -11 | x | 0 | -3 | 31*
O=C(Nc1nnc(C2CCCCC2)s1)c1ccc(Br)s1 | 95* | x | -8 | 19 | -2 | 0 | 82* | RORg counter=>40
O=C(Nc1nnc(C(F)(F)F)s1)c1ccc(Br)s1 | 2 | 0 | -25 | -59 | 6 | 0 | x
COc1cccc(C(=O)Nc2ccc3c(c2)OC[C@@H](C)N(CC2CC2)C[C@@H](C)[C@@H](OC)CN(C)C3=O)c1 | x | -1 | -3 | 4 | x | x | x
COc1ccc(NC(=O)CN(C)C(=O)CNC(=O)c2sc3ccccc3c2Cl)cc1 | -2 | 1 | -7 | -34 | -8 | -1 | x
O=C(CNC(=O)c1sc2ccccc2c1Cl)Nc1ccccc1F | 44* | -1 | -12 | -1 | 17 | 0 | 10
CN(CC(=O)Nc1ccc(F)cc1)C(=O)COC(=O)CNC(=O)c1sc2ccccc2c1Cl | 23* | 0 | -7 | -18 | -7 | -1 | 9
CCC(=O)N(C)C[C@H]1Oc2cc(-c3cccc(OC)c3)ccc2S(=O)(=O)N([C@H](C)CO)C[C@@H]1C | x | -4 | 4 | 0 | x | x | x
CCCNC(=O)Nc1ccc2c(c1)C(=O)N(C)C[C@H](OC)[C@@H](C)CN(C(=O)CC)[C@H](C)CO2 | x | x | x | -10 | x | x | x
C[C@@]12CCC3[C@@](CCC4[C@@]3(C)CCC[C@@]4(C)C(=O)O)(CC1=O)C2 (stereo partly drawn) | -3 | 3 | -7 | x | 6 | 1 | x
C=C1C[C@@]23CCC4[C@@](C)(CCC[C@@]4(C)C(=O)O)C2CC[C@]1(O)C3 (stereo partly drawn) | 13* | 2 | -7 | x | -5 | 1 | 4
COc1ccc(N=Cc2c(O)n(-c3cccc(C)n3)c(=O)c3ccccc23)c(OC)c1 | 53* | x | -7 | x | -10 | 0 | 9
COc1ccc(NC(=O)c2sc(NC(=O)C3CC3)nc2C)cc1 | 1 | 1 | -15 | 12 | 3 | -3 | x
CC(=O)c1sc(NC(=O)CCCOc2ccc(Cl)cc2)nc1C | 15* | -2 | x | -11 | 0 | -3 | 12
COc1ccc(OCCCC(=O)Nc2nc(C)c(C(C)=O)s2)cc1 | -1 | -13 | x | -11 | -3 | -1 | x
CC(=O)c1sc(NC(=O)COc2ccc([N+](=O)[O-])cc2)nc1C | 7 | -1 | -8 | 9 | -5 | -2 | x
Cc1nc(NC(=O)C2CC2)sc1C(=O)Nc1ccc(Br)cc1 | 38* | 0 | -13 | 3 | 7 | 0 | 27*
CC(=O)c1sc(NC(=O)c2ccc(F)c(F)c2)nc1C | 1 | x | -13 | -17 | 1 | 0 | x
CC(=O)c1sc(NC(=O)COc2ccc(Br)cc2)nc1C | 43* | 5 | x | -8 | -12 | -3 | 49* | RORg counter=>40
CC(=O)c1sc(NC(=O)c2ccc(Cl)cc2)nc1C | 26* | -1 | x | -10 | -1 | 0 | 17
O=C(CC1CC1)N[C@H]1CC[C@H](CCNS(=O)(=O)c2ccc(F)cc2)O[C@H]1CO | x | -1 | -3 | 8 | x | x | x
C[C@H](CO)N1C[C@H](C)[C@H](CN(C)C(=O)NC2CCCC2)Oc2cc(-c3cccnc3)ccc2S1(=O)=O | x | 10 | -4 | 6 | x | x | x
O=C(/C=C/c1cccc2ccccc12)NCCC1=CCCCC1 | 29* | x | -14 | x | 8 | 1 | 38* | RORg counter=>40

Reprinted from the part before: two compounds, followed by the next part.
SMILES | NR1D1 modulator | ERp5 inh | UUG fidelity | GSIS activator | PDI inh | SMARCA2 act | Rev-erbA confirm | others
C[C@H](CO)N1C[C@H](C)[C@H](CN(C)C(=O)NC2CCCC2)Oc2cc(-c3cccnc3)ccc2S1(=O)=O | x | 10 | -4 | 6 | x | x | x
O=C(/C=C/c1cccc2ccccc12)NCCC1=CCCCC1 | 29* | x | -14 | x | 8 | 1 | 38* | RORg counter=>40
COc1ccc(OC)c(NC(=O)c2[nH]c(C)c(C(C)=O)c2C)c1 | 31* | x | -11 | x | 4 | 4 | 22*
COc1ccc(Cl)cc1NC(=O)c1[nH]c(C)c(C(C)=O)c1C | 31* | -1 | -28 | -6 | 7 | -5 | 35* | RORg counter=>40
COc1ccc(C(C)=O)cc1COC(=O)c1c(C)noc1C | -6 | x | 0 | 19 | 2 | -1 | x
COc1ccc(C(C)=O)cc1COC(=O)c1ccc(OCc2c(C)noc2C)cc1 | 16* | -12 | 0 | 5 | -5 | 2 | 12
Cc1cc(C)c(N=C2SCC(=O)N2Cc2ccco2)c(C)c1 | 43* | 1 | 1 | -16 | 6 | -5 | 37* | RORg counter=>40
O=C1CSC(=Nc2ccc(Cl)cc2)N1Cc1ccco1 | 3 | 0 | x | -9 | 1 | -5 | x
COc1ccc2c3c(n(C)c2c1)[C@H](CO)NCC31CCN(Cc2ccc(-c3ccccn3)cc2)CC1 | x | 11 | x | 19 | x | x | x
O=C1c2cccc3cccc(c23)C(=O)N1c1ccccn1 | -1 | 4 | 1 | 12 | 6 | -1 | x
O=C1c2c(Br)c(Br)c(Br)c(Br)c2C(=O)N1c1ccccn1 | 276* | -4 | -7 | -9 | -2 | -2 | 391* | RORg counter=>40

For reference, some entries already given.
SMILES | NR1D1 modulator | ERp5 inh | UUG fidelity | GSIS activator | PDI inh | SMARCA2 act | Rev-erbA confirm | others
COc1ccc2c3c(n(C)c2c1)[C@H](CO)NCC31CCN(Cc2ccc(-c3ccccn3)cc2)CC1 | x | 11 | x | 19 | x | x | x
O=C1c2cccc3cccc(c23)C(=O)N1c1ccccn1 | -1 | 4 | 1 | 12 | 6 | -1 | x
O=C1c2c(Br)c(Br)c(Br)c(Br)c2C(=O)N1c1ccccn1 | 276* | -4 | -7 | -9 | -2 | -2 | 391* | RORg counter=>40
